RAD52 anneal inh = inhibitors of human RAD52 DNA annealing | recombinant RAD52 DNA annealing, FRET fluorescence | inhibition, % at 18.7 µM | actives 0.46% (n = 360,000);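 active = every replicate showing at least 50% inhibition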
Yeast UUG start = modulators of start codon recognition fidelity in yeast; AID 602363; hit rate 0.13% among 350,000; activity score, % at 18.7 µM; S. cerevisiae UUG-firefly luciferase reporter, luminescence/redox ratio;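 active = replicate mean at a twofold rise or more, about +100% in these data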;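 note: firefly luciferase made from a UUG start codon reports start codon fidelity; reporter light over untreated wells divided by growth signal over untreated wells; some hits fall short of that in this replicate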
E-sel inducer = induces E-selectin expression in human endothelial cells; activation, % at 7.58 µM; HUVEC E-selectin immunofluorescence imaging; normalized: neutral wells 0, TNF-alpha wells 100; P16581; actives 0.37% (n = 260,000);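 active = mean E-selectin-positive cell signal at least 10% of the positive control, reached in at least 60% of replicates, without over 20% cell loss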
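Read-out basis: % PE-positive cells; Test system: HUVEC primary endothelial cells; Technique: immunofluorescence imaging; Dosing: single-point compound dose.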
XiGFP reactiv = activators of X-chromosome reactivation in mouse fibroblasts | XiGFP mouse fibroblasts, % GFP-positive cells imaging, 3 d; cells co-treated with 5-aza-dC sensitizer; scaled so ellipticine positive control = 100% | activation, % at 7.58 µM | actives 0.055% (n = 360,000) | AID 743238;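 active = mean normalized replicate activation at least 10% and every replicate at or above 10%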;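 note: 0% = median of on-plate neutral control wells and 100% = ellipticine 6 µM median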
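System: SV40-immortalized XiGFP fibroblast cells, line 68-5-11 / Incubation: 3-day compound exposure, then 15 min fixation at room temperature / Compound: single concentration per compound, delivered by pin transfer / Buffer or medium: DMEM plus 5-aza-dC sensitizer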
RAD54 inh = inhibitors of human RAD54 branch migration | RAD54 Holliday junction branch migration, FAM/BHQ fluorescence | inhibition, % at 10.4 µM | actives 0.14% (n = 360,000);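 active = mean normalized replicate activity at least 40 and at least half of replicates scoring 40 or more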;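 note: 0% = median of neutral control wells and 100% = median of positive control wells; inhibitors cause a drop in the FAM fluorescence signal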
* = called active by the depositor; / = not tested or not shown. Shown are actives, neighbours in structure and some others; about 0.73% of the full set was active somewhere.

Letter code: A = RAD52 anneal inh; B = Yeast UUG start; C = E-sel inducer; D = XiGFP reactiv; E = RAD54 inh
O=C1CN(C(=O)COC(=O)c2cccs2)c2ccccc2N1
  A: -12.9	B: -19.4	C: 80.0*	D: 0.2	E: 2.5
O=C1CN(C(=O)c2cccs2)c2ccccc2N1
  A: /	B: -14.9	C: /	D: /	E: -15.2
CCOC(=O)c1cccc(NC(=O)c2cc(C)nn2-c2ccccc2)c1
  A: -5.5	B: -20.2	C: 40.7*	D: 0.4	E: -3.5
C[C@H](CO)N1C[C@H](C)[C@H](CN(C)C(=O)NC2CCCCC2)Oc2ncc(C#CC(C)(C)O)cc2C1=O
  A: 14.8	B: -2.8	C: -2.4	D: -0.4	E: 0.7
O=C(Nc1ccc(C2=NCCN2)cc1)c1ccc(C(=O)Nc2ccc(C3=NCCN3)cc2)c([N+](=O)[O-])c1
  A: 104.1*	B: /	C: -0.1	D: -0.1	E: /
Nc1c(Br)cc(Br)c2c1C(=O)c1c(cccc1S(=O)(=O)O)C2=O
  A: -29.2	B: 19.5	C: 123.9*	D: 0.4	E: -10.6
CCCNC(=O)N1C[C@@H]2[C@H](c3ccccc31)[C@H](CO)N2C(=O)Nc1ccccc1F
  A: -4.5	B: -0.1	C: 0.0	D: -0.1	E: 3.5
Cc1nc2nc(C)n(CCN3CCOCC3)c(=O)c2c(-c2cccc([N+](=O)[O-])c2)c1C(=O)CCCCCCCCCCN1CCC(c2ccccc2)(c2ccccc2)CC1
  A: 96.8*	B: /	C: 0.0	D: 1.2	E: /
O=C(NCCCN1CCOCC1)/C(=C/c1ccc(-c2cccc([N+](=O)[O-])c2)o1)NC(=O)c1ccccc1
  A: -27.0	B: -18.4	C: -0.2	D: 0.1	E: 23.1
Cc1ccccc1/C=N/Nc1ccnc2cc(Cl)ccc12
  A: -15.9	B: 1.9	C: /	D: 0.2	E: 0.2
Clc1ccc2c(N/N=C/c3ccc(Br)cc3)ccnc2c1
  A: -8.0	B: -16.8	C: -1.2	D: 0.2	E: -8.3
Oc1ccc(/C=N/Nc2ccnc3cc(Cl)ccc23)c(O)c1
  A: -19.9	B: -1.8	C: -3.2	D: 68.1*	E: 5.4
Clc1ccc2c(N/N=C/c3cccnc3)ccnc2c1
  A: -7.8	B: -13.4	C: /	D: 0.3	E: 70.9*
O=C([C@H]1[C@H](CO)[C@H]2Cn3c(ccc(C4=CCCC4)c3=O)[C@@H]1N2)N1CCCCC1
  A: -3.2	B: 0.5	C: 0.0	D: 0.5	E: -2.9
Cc1noc(C)c1S(=O)(=O)N(C)C[C@@H]1Oc2ccc(N(C)C)cc2CC(=O)N([C@@H](C)CO)C[C@H]1C
  A: 1.6	B: 7.9	C: -0.1	D: -0.5	E: 0.4
Cc1cc(/C(N)=N/OC(=O)Nc2cccc(C(F)(F)F)c2)no1
  A: -20.2	B: -3.6	C: 66.8*	D: 0.1	E: 4.0
COc1ccc(NC(=O)Nc2cccc3c2O[C@H](CN(C)S(=O)(=O)c2ccc(F)cc2)[C@H](C)CN([C@@H](C)CO)C3=O)cc1
  A: /	B: -7.2	C: 0.1	D: 0.0	E: 3.3
C[C@@H]1CCCCO[C@@H](CN(C)S(=O)(=O)c2cn(C)cn2)[C@H](C)CN([C@@H](C)CO)C(=O)c2cc(NC(=O)NC3CCCCC3)ccc2O1
  A: 12.4	B: -10.4	C: -0.2	D: -0.1	E: -5.7
O=C(c1ccccc1[N+](=O)[O-])N1CCN(c2ccc(N3CCOCC3)nn2)CC1
  A: -1.2	B: -20.6	C: 58.2*	D: 0.0	E: -11.1
CN1C(=O)c2cc(NC(=O)c3cnccn3)ccc2OC[C@H]2O[C@@H](CC(=O)NCC3CC3)CC[C@H]21
  A: /	B: /	C: /	D: 0.0	E: /
COc1ccccc1NC(=O)N[C@@H]1C=C[C@H](CC(=O)N2CCC(Cc3ccccc3)CC2)O[C@@H]1CO
  A: 1.9	B: 20.9	C: -0.6	D: -0.3	E: -1.7
CC(=O)Nc1cc2c3c(cccc3c1)-c1ccccc1-2
  A: -14.1	B: /	C: 0.0	D: 99.5*	E: /
CC(=O)Nc1ccc2c(c1)C(=O)c1ccccc1C2=O
  A: /	B: -10.7	C: /	D: /	E: 0.7
Cc1cccc(OCC(=O)N(C)c2c(N)n(Cc3ccccc3)c(=O)[nH]c2=O)c1C
  A: -19.4	B: -0.1	C: /	D: 139.9*	E: -4.6
Cc1ccccc1OCCC(=O)N(Cc1ccccc1)c1c(N)n(Cc2ccccc2)c(=O)[nH]c1=O
  A: -18.9	B: -9.3	C: 0.0	D: 0.6	E: 15.0
COc1ccc(S(=O)(=O)Nc2ccc3c(c2)C(=O)N([C@H](C)CO)C[C@@H](C)[C@@H](CN(C)Cc2ccc(-c4ccccc4)cc2)O3)cc1
  A: -7.6	B: 12.1	C: -0.1	D: 0.5	E: 0.9
CCCNC(=O)c1ccc2c(c1)CCN2S(C)(=O)=O
  A: -28.8	B: /	C: /	D: 0.0	E: /
CS(=O)(=O)N1CCc2cc(S(=O)(=O)NCCNS(=O)(=O)c3ccc4c(c3)CCN4S(C)(=O)=O)ccc21
  A: -24.1	B: -3.0	C: 52.6*	D: 0.0	E: 0.3
CS(=O)(=O)N1CCc2cc(C(=O)NC3CC3)ccc21
  A: -12.0	B: /	C: 27.2*	D: 0.1	E: /
CS(=O)(=O)N1CCc2cc(S(=O)(=O)Nc3ccc4c(c3)OCCO4)ccc21
  A: -10.5	B: 2.2	C: /	D: /	E: 12.0
Oc1ccc(Br)cc1C=Nc1ccc2c3c(cccc13)CC2
  A: -27.0	B: /	C: /	D: 104.7*	E: /
CC(=O)N(C)C[C@@H]1[C@@H](c2ccccc2)[C@H](CO)N1C(=O)C1CC1
  A: -8.6	B: -12.7	C: 1.0	D: 0.1	E: 0.7
COC(=O)c1ccc(N2C(=O)CC(SCC(=O)Nc3ccc(OC)cc3)C2=O)cc1 (stereo unspecified)
  A: -11.1	B: /	C: 57.9*	D: /	E: /
CCOC(=O)c1ccc(N2C(=O)CC(SCC(=O)Nc3ccc(S(N)(=O)=O)cc3)C2=O)cc1 (stereo unspecified)
  A: -16.5	B: /	C: /	D: 0.1	E: /
COc1ccc(S(=O)(=O)Nc2ccc3c(c2)C(=O)N([C@@H](C)CO)C[C@H](C)[C@H](CN(C)Cc2ccc4c(c2)OCO4)O3)cc1
  A: -2.8	B: 2.6	C: -0.1	D: -0.1	E: 2.2
C[C@@H]1CCCCO[C@@H](CN(C)CC2CC2)[C@H](C)CN([C@@H](C)CO)C(=O)c2cc(NC(=O)c3ccccc3)ccc2O1
  A: /	B: /	C: 0.2	D: 0.0	E: /
C[C@H](CO)N1C[C@H](C)[C@@H](CN(C)CC2CC2)OCCCC[C@H](C)Oc2ccc(NC(=O)Nc3ccc4c(c3)OCO4)cc2C1=O
  A: 47.6	B: /	C: 0.0	D: -0.1	E: 8.3
C[C@H](CO)N1C[C@H](C)[C@H](CN(C)CC2CCCCC2)Oc2ccc(NC(=O)Nc3ccc4c(c3)OCO4)cc2C1=O
  A: 4.3	B: 22.3	C: 348.8*	D: 0.1	E: 4.9
C[C@H](CO)N1C[C@H](C)[C@H](CN(C)CC2CC2)OCCCC[C@H](C)Oc2ccc(NC(=O)Nc3ccc4c(c3)OCO4)cc2C1=O
  A: 55.1*	B: /	C: /	D: /	E: 17.1
C[C@@H]1CCCCO[C@H](CN(C)CC2CC2)[C@H](C)CN([C@@H](C)CO)C(=O)c2cc(NC(=O)c3ccccc3)ccc2O1
  A: 51.6*	B: /	C: -0.2	D: 0.6	E: 12.0
CNC(=O)C[C@H]1CC[C@H]2[C@H](COc3ccc(NC(=O)c4ccccc4OC)cc3C(=O)N2C)O1
  A: 3.8	B: 15.2	C: 0.0	D: 0.1	E: 0.1
CCNC(=O)C[C@@H]1C=C[C@@H](NC(=O)C2CC2)[C@@H](CO)O1
  A: -9.2	B: -6.8	C: -0.2	D: -0.3	E: -2.8
C/C=C/c1cccc(-c2nc(C(=O)NCc3ccccc3)cc3c2[C@H](CCO)N([S@@](=O)C(C)(C)C)C3)c1
  A: -10.1	B: /	C: 4.2	D: 0.1	E: -0.8
CCNC(=O)C[C@H]1CC[C@@H]2[C@H](COC[C@H](O)CN2C(=O)CC)O1
  A: 1.0	B: -12.6	C: -0.1	D: -0.1	E: 0.1

In another format: entries from further up
> COc1ccc(S(=O)(=O)Nc2ccc3c(c2)C(=O)N([C@@H](C)CO)C[C@H](C)[C@H](CN(C)Cc2ccc4c(c2)OCO4)O3)cc1
  RAD52 anneal inh = -2.8; Yeast UUG start = 2.6; E-sel inducer = -0.1; XiGFP reactiv = -0.1; RAD54 inh = 2.2

> C[C@@H]1CCCCO[C@@H](CN(C)CC2CC2)[C@H](C)CN([C@@H](C)CO)C(=O)c2cc(NC(=O)c3ccccc3)ccc2O1
  RAD52 anneal inh = /; Yeast UUG start = /; E-sel inducer = 0.2; XiGFP reactiv = 0.0; RAD54 inh = /

Compound activity (PubChem)
